Test results: ChEMBL document CHEMBL5543101, “Identification of 3-aryl-5-methyl-isoxazole-4-carboxamide derivatives and analogs as novel HIF-2α agonists through docking-based virtual screening and structural modification” (Eur J Med Chem, 2024)

The chains behind the UniProt entries cited, without tags or fusion partners. Where a name states a change or a piece, a line headed by the entry shows the natural chain unless it says otherwise.
UniProt Q99814: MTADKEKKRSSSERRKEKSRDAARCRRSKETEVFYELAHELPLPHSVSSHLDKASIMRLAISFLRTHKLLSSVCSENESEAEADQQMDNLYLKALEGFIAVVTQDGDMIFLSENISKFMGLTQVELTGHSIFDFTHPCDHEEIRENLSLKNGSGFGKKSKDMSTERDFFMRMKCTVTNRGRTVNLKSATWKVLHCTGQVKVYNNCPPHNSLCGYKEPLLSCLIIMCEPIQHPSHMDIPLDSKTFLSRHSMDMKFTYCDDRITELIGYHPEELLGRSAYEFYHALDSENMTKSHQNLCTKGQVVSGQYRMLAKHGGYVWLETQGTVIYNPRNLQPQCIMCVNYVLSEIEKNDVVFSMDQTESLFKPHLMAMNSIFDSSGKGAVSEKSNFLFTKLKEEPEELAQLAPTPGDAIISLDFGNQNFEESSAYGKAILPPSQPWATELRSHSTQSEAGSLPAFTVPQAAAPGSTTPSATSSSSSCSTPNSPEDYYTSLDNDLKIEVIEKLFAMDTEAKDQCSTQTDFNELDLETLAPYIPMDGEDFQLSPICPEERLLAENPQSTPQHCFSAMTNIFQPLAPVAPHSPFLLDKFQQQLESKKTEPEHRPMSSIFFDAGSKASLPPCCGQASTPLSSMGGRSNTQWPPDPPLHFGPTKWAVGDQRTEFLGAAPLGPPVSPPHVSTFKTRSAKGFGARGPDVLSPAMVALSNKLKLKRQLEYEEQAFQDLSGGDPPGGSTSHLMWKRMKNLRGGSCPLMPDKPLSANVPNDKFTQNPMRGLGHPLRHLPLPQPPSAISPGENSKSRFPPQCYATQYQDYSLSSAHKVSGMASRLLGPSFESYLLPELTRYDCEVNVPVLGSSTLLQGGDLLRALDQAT

What was measured:
[1] = Effect on EPO mRNA expression in human 786-0 cells assessed as fold change at 10 uM incubated for 24 hrs by RT-PCR analysis (reference value: 0.98 +/- 0.14); format: functional
[2] = biological target: Endothelial PAS domain-containing protein 1 (Homo sapiens, UniProt Q99814); experiment: Agonist activity at HIF-2alpha in human 786-0 cells assessed as increase in VEGF secretion at 2 uM incubated for 20 hrs by ELISA relative to control; format: cell-based; details: filed as agonist

Row | Activity [2] [%] | Structure (SMILES) | fold change (FC) [1]
1 |  | O=C(Nc1cccc(C(F)(F)F)c1)c1cn[nH]c1-c1ccccc1Cl | 2.03
2 | 113 | O=S1(=O)N=C(Nc2cc(C(F)(F)F)cc(C(F)(F)F)c2)c2ccccc21 | 
